{"sequences": {"note": "Protein sequences, listed by entry. Tags and fused reporters are not part of them.", "UniProt P32245, whole entry, looked up": "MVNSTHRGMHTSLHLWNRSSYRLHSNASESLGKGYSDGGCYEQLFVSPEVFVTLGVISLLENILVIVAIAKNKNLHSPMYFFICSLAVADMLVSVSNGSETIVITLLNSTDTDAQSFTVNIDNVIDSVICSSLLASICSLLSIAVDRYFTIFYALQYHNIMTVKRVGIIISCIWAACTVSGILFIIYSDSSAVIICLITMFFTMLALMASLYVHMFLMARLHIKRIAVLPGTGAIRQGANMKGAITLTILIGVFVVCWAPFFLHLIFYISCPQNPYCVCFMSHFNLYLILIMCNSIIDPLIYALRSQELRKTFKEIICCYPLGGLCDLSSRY"}, "source": "PubChem BioAssay AID540308", "about": "(The Scripps Research Institute Molecular Screening Center, 2011)", "note": "This is a selection; strong and weak results do not stand in their true shares. Active and inactive are the calls of the source.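 The calls were made as follows: active = activation above a per-plate cutoff, the mean activation of sample wells on that plate plus 3 SD (cut at about 8% in these data); inactive = the rest.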", "data": [{"molecular_target": "Melanocortin receptor 4 (Homo sapiens) (UniProt P32245)", "assay": "activators of MC4R beta-arrestin recruitment – cell-based, luminescence, agonist arm of biased-ligand search, primary screen (AID 540308)", "details": "U2OS MC4R beta-arrestin complementation, at 8.9 µM, hits give high values, percent of melanotan II response, DMSO zero", "values": [{"smiles": "Cc1ccc(NP(=O)(Oc2cccc(C)c2)Oc2cccc(C)c2)nc1", "activation": "inactive: -1.37%"}, {"smiles": "c1ccc(-c2nn[nH]n2)c(-c2nn[nH]n2)c1", "activation": "inactive: 1.87%"}, {"smiles": "CCNC(=S)/N=C(\\N)N[N+](=O)[O-]", "activation": "inactive: -4.19%"}, {"smiles": "O=C(NC1CCS(=O)(=O)C1)NP(=S)(Oc1ccccc1)Oc1ccccc1", "note": "(stereo unspecified)", "activation": "inactive: -1.28%"}, {"smiles": "O=P1(N(CCCl)CCCl)OCCC2CCCCN21", "note": "(stereo unspecified)", "activation": "inactive: -1.71%"}, {"smiles": "CCC(=O)N1C2C3N(C(=O)CC)C1C1N(C(=O)CC)C(C(N1C(=O)CC)N3C(=O)CC)N2C(=O)CC", "activation": "inactive: -0.78%"}, {"smiles": "O=C(OC1CN2CCC1CC2)c1ccccc1", "note": "(stereo unspecified)", "activation": "inactive: -0.87%"}, {"smiles": "Cc1ccc(OP(=O)(Nc2ccccn2)Oc2ccc(C)cc2)cc1", "activation": "inactive: -1%"}, {"smiles": "CC(=O)NC(SC(=S)N(CC(C)C)CC(C)C)C(Cl)(Cl)Cl", "note": "(stereo unspecified)", "activation": "inactive: -0.84%"}, {"smiles": "COC(=O)c1cc2c(s1)N=C(c1ccccc1)N(C)P2(=O)N1CCOCC1", "note": "(stereo unspecified)", "activation": "inactive: -0.3%"}, {"smiles": "O=c1c2cc([N+](=O)[O-])ccc2[nH]c2c([N+](=O)[O-])cc([N+](=O)[O-])cc12", "activation": "inactive: -4.28%"}, {"smiles": "CN(C)C(=O)Oc1noc2ccccc12", "activation": "inactive: 0.37%"}, {"smiles": "CC(NC(=O)COC(=O)C(O)(c1ccccc1)c1ccccc1)c1ccccc1", "note": "(stereo unspecified)", "activation": "inactive: -1.92%"}, {"smiles": "Cc1ccccc1OP(=O)(Nc1ccccn1)Oc1ccccc1C", "activation": "inactive: 2.98%"}, {"smiles": "CCOc1ccc(C2=NCC(CBr)S2)cc1", "note": "(stereo unspecified)", "activation": "inactive: -0.43%"}, {"smiles": "O=P1(Nc2nc3ccc(Cl)cc3s2)COc2ccccc2O1", "note": "(stereo unspecified)", "activation": "inactive: -1.42%"}, {"smiles": "CC(C)(C)C(=O)NC(Sc1ccccc1)C(Cl)(Cl)Cl", "note": "(stereo unspecified)", "activation": "inactive: 1.17%"}, {"smiles": "CCc1cc(O)c([N+](=O)[O-])c(C)c1[N+](=O)[O-]", "activation": "inactive: -0.86%"}, {"smiles": "C[C@H]1OP(=O)(Oc2ccccc2)C[C@@H]2O[C@@H]21", "note": "(stereo partly specified)", "activation": "inactive: -0.93%"}, {"smiles": "C[C@@H]1C=CCP(=O)(Oc2ccccc2)O1", "note": "(stereo partly specified)", "activation": "inactive: -1.15%"}, {"smiles": "Cc1ccccc1CN(C)C(=O)COC(=O)C(O)(c1ccccc1)c1ccccc1", "activation": "inactive: 5.7%"}, {"smiles": "COC(=O)C1(C)COP(=O)(NCc2ccccc2)OC1", "note": "(stereo unspecified)", "activation": "inactive: -0.8%"}, {"smiles": "CC(=O)c1ccc(N2CC2c2ccncc2)cc1", "note": "(stereo unspecified)", "activation": "inactive: 0.71%"}, {"smiles": "N#C/C(=C\\c1ccc(N(CCBr)CCBr)cc1)C(N)=O", "activation": "inactive: -1.02%"}, {"smiles": "CC(=O)Nc1ccc(Oc2c([N+](=O)[O-])cc([N+](=O)[O-])cc2[N+](=O)[O-])cc1", "activation": "inactive: -4.24%"}, {"smiles": "CC(=O)Nc1ccc([As](=O)(O)O)c(O)c1", "activation": "inactive: -1.59%"}, {"smiles": "CC(C)C(=O)NC(Sc1ccccc1)C(Cl)(Cl)Cl", "note": "(stereo unspecified)", "activation": "inactive: 2.12%"}, {"smiles": "O=P(Nc1nccs1)(c1ccccc1)c1ccccc1", "activation": "inactive: -1.62%"}, {"smiles": "c1nnnn1CCn1cnnn1", "activation": "inactive: -0.14%"}, {"smiles": "COc1ccc(C[C@H](C)NC[C@@H](O)c2ccc(O)c(NC=O)c2)cc1", "activation": "inactive: 1.47%"}, {"smiles": "O=P(Nc1ccccn1)(c1ccc(Br)cc1)c1ccc(Br)cc1", "activation": "inactive: 2.46%"}, {"smiles": "CN(C)C1(CNC(=O)c2ccc(Cl)c(S(N)(=O)=O)c2)CCCCC1", "activation": "inactive: -2.17%"}, {"smiles": "COc1ccc(N)c([N+](=O)[O-])c1[N+](=O)[O-]", "activation": "inactive: -4.04%"}, {"smiles": "C[C@H]1OP(=O)(Oc2ccccc2)[C@H](O)[C@H](O)[C@H]1N=[N+]=[N-]", "note": "(stereo partly specified)", "activation": "inactive: 0.4%"}, {"smiles": "O=P(Nc1nc2ccccc2s1)(c1ccccc1)c1ccccc1", "activation": "inactive: 1.01%"}, {"smiles": "O=[As](O)(c1ccccc1)c1ccc(O)cc1", "activation": "inactive: 0.44%"}, {"smiles": "O=[N+]([O-])c1ccc(O)c(/C=N/Nc2ccc([N+](=O)[O-])cc2[N+](=O)[O-])c1", "activation": "inactive: 1.6%"}, {"smiles": "O=[N+]([O-])c1ncn(CCn2cnc([N+](=O)[O-])n2)n1", "activation": "inactive: -0.34%"}, {"smiles": "CC(=O)NC(SC(=S)N(C)C)C(Cl)(Cl)Cl", "note": "(stereo unspecified)", "activation": "inactive: 0.31%"}, {"smiles": "O=C(OC1CN2CCC1CC2)c1cccc(Cl)c1", "note": "(stereo unspecified)", "activation": "inactive: -1.08%"}, {"smiles": "C(Cc1nn[nH]n1)Cc1nn[nH]n1", "activation": "inactive: -1.01%"}, {"smiles": "Nc1ccc([As](=O)(O)c2ccc([N+](=O)[O-])cc2)cc1", "activation": "inactive: -1.25%"}, {"smiles": "O=P1(N(CCCl)CCCl)OCCCS1", "note": "(stereo unspecified)", "activation": "inactive: -2.07%"}, {"smiles": "O=C(Nc1cc([As](=O)(O)O)ccc1O)c1ccccc1", "activation": "inactive: 0.56%"}, {"smiles": "O=[N+]([O-])c1ncn(CCn2ncnc2[N+](=O)[O-])n1", "activation": "inactive: -0.25%"}, {"smiles": "CC(C)(C)C(=O)NC(Sc1ccncn1)C(Cl)(Cl)Cl", "note": "(stereo unspecified)", "activation": "inactive: 2.27%"}, {"smiles": "O=C(O)CNc1ccc([As](=O)(O)O)cc1", "activation": "inactive: -2.38%"}, {"smiles": "COC(=O)C1(C)COP(=O)(Nc2ccccc2)OC1", "note": "(stereo unspecified)", "activation": "inactive: -0.66%"}, {"smiles": "O=[N+]([O-])c1cccc(NC2=NCC(CBr)S2)c1", "note": "(stereo unspecified)", "activation": "inactive: -0.02%"}, {"smiles": "COc1ccc(C2=NCC(CBr)S2)cc1", "note": "(stereo unspecified)", "activation": "inactive: -0.79%"}, {"smiles": "CCc1nc2c(n1)c1c(non1O)c1c2no[n+]1[O-]", "activation": "inactive: -1.18%"}, {"smiles": "O=[N+]([O-])c1cc([N+](=O)[O-])c(CCNc2ccccc2)c([N+](=O)[O-])c1", "activation": "inactive: -2.52%"}, {"smiles": "Cc1ccc(NP(=O)(Oc2ccccc2)Oc2ccccc2)nc1", "activation": "inactive: -3.58%"}, {"smiles": "O=[N+]([O-])c1cccc2n[nH]nc12", "activation": "inactive: -0.51%"}, {"smiles": "CC(=O)N1C2C3N(C(C)=O)C1C1N(C(C)=O)C(C(N1C(C)=O)N3C(C)=O)N2C(C)=O", "activation": "inactive: 0.27%"}, {"smiles": "CCN(/C(=N/P(=O)(N1CCOCC1)N1CCOCC1)N1CCOCC1)c1ccc(OC)cc1", "activation": "inactive: 1.27%"}, {"smiles": "C[N+]1=C2C=CC=CC=C2SC12C([N+](=O)[O-])=CC([N+](=O)[O-])=C[C-]2[N+](=O)[O-]", "note": "(stereo unspecified)", "activation": "inactive: -5.26%"}, {"smiles": "Nc1ccc([As](=O)(O)c2ccc(N)cc2)cc1", "activation": "inactive: 1.74%"}, {"smiles": "CC1CCN(C(=O)Oc2c(Cl)cc(Cl)c3cccnc23)CC1", "activation": "inactive: -1.58%"}, {"smiles": "c1cc(-c2nn[nH]n2)ccc1-c1nn[nH]n1", "activation": "inactive: -0.35%"}, {"smiles": "CN(C)C(=O)OCCc1n(C)cc[n+]1C", "activation": "inactive: -2.13%"}, {"smiles": "CC(C)c1nc(Nc2ccccc2)n(P(=O)(N(C)C)N(C)C)n1", "activation": "inactive: -0.8%"}, {"smiles": "CC(C)=N/N=C(\\N)N[N+](=O)[O-]", "activation": "inactive: -0.48%"}, {"smiles": "Cc1ccc(N/C(=N/P(=O)(N2CCOCC2)N2CCOCC2)N2CCOCC2)cc1", "activation": "inactive: 0.12%"}, {"smiles": "CN(C(=O)Cc1ccc(Cl)c(Cl)c1)[C@H]1CCCC[C@H]1N1CCCC1", "activation": "inactive: 0.18%"}, {"smiles": "NC(=O)c1cc([N+](=O)[O-])cc([N+](=O)[O-])c1N", "activation": "inactive: -1.89%"}, {"smiles": "CN1CCCC(OC(=O)C(c2ccccc2)c2ccccc2)C1", "note": "(stereo unspecified)", "activation": "inactive: 1.33%"}, {"smiles": "Clc1ccc(Cl)c(NC2=NCC(CBr)S2)c1", "note": "(stereo unspecified)", "activation": "inactive: 0.27%"}, {"smiles": "Cc1ccc(OP(=O)(Nc2nccs2)Oc2ccc(C)cc2)cc1", "activation": "inactive: -0.64%"}, {"smiles": "COc1ccccc1OP(=O)(Nc1ccc(C)cn1)Oc1ccccc1OC", "activation": "inactive: -1%"}, {"smiles": "O=C(NC(Sc1ccncn1)C(Cl)(Cl)Cl)c1ccccc1", "note": "(stereo unspecified)", "activation": "inactive: -2.23%"}, {"smiles": "Oc1ccccc1CNc1ccccn1", "activation": "inactive: 0.41%"}, {"smiles": "Nc1cc(N)c2nonc2c1[N+](=O)[O-]", "activation": "inactive: 1.47%"}, {"smiles": "CC(C)CC(=O)NC(Sc1ccc(Cl)cc1)C(Cl)(Cl)Cl", "note": "(stereo unspecified)", "activation": "inactive: 0.15%"}, {"smiles": "O=P(Nc1nc2ccc(Cl)cc2s1)(c1ccccc1)c1ccccc1", "activation": "inactive: 0.22%"}, {"smiles": "CN(C)P(=O)(N(C)C)n1c(Nc2ccccc2)nnc1-c1ccccc1", "activation": "inactive: 0.28%"}, {"smiles": "CCCC1OP(N)(=O)OCC1CC", "note": "(stereo unspecified)", "activation": "inactive: 1.33%"}, {"smiles": "CC(=O)Nc1ccc([As](=O)(O)O)cc1", "activation": "inactive: 1.06%"}, {"smiles": "O=C(O)c1ccccc1[As](=O)(O)O", "activation": "inactive: -1.41%"}, {"smiles": "Cc1ccc(NP(=O)(Oc2ccccc2F)Oc2ccccc2F)nc1", "activation": "inactive: 0.53%"}, {"smiles": "CN(C(=O)Cc1ccc(Cl)c(Cl)c1)[C@H]1CCCC[C@@H]1N1CCCC1", "activation": "inactive: -0.29%"}, {"smiles": "Cc1cc(SC(NC(=O)c2ccc(F)cc2)C(Cl)(Cl)Cl)ncn1", "note": "(stereo unspecified)", "activation": "inactive: -0.67%"}, {"smiles": "CCOP(=O)(Nc1ccccc1)OCC", "activation": "inactive: 0.95%"}, {"smiles": "Nc1cccc2ccc([As](=O)(O)O)cc12", "activation": "inactive: -1.95%"}, {"smiles": "CCN(N=Nc1nonc1N)c1nonc1N", "activation": "inactive: -1.64%"}, {"smiles": "O=[N+]([O-])c1ccc(-c2cc([N+](=O)[O-])c(O)c([N+](=O)[O-])c2)cc1", "activation": "inactive: -2.05%"}, {"smiles": "COc1cc(C(=O)NCC2(N3CCOCC3)CCCCC2)ccc1OCC(C)C", "activation": "inactive: 3.12%"}, {"smiles": "O=[As](O)(c1ccc(O)cc1)c1ccccc1O", "activation": "inactive: -1.41%"}, {"smiles": "C[As](=O)(O)c1cccc(C(=O)O)c1", "activation": "inactive: 0.09%"}, {"smiles": "CC(Cc1ccc(O)cc1)NCC(O)c1cc(O)cc(O)c1", "note": "(stereo unspecified)", "activation": "inactive: 0.95%"}, {"smiles": "Cc1ccc(OP(=O)(Nc2ccc([N+](=O)[O-])cn2)Oc2ccc(C)cc2)cc1", "activation": "inactive: -0.63%"}, {"smiles": "Cc1ccc2nc3c(c(C)c2c1)CC(C(Cl)Cl)S3", "note": "(stereo unspecified)", "activation": "inactive: 2.95%"}, {"smiles": "ClCCSc1nnc(-c2cccnc2)o1", "activation": "inactive: 0.24%"}, {"smiles": "COC(=O)C1(C)COP(=O)(N2CCCCCC2)OC1", "note": "(stereo unspecified)", "activation": "inactive: -1.96%"}, {"smiles": "CC(C)c1ccc(OP(=O)(Nc2ccccn2)Oc2ccccc2F)cc1", "note": "(stereo unspecified)", "activation": "inactive: 5.49%"}, {"smiles": "O=[N+]([O-])c1cc([N+](=O)[O-])c(-c2ccn[nH]2)s1", "activation": "inactive: -0.43%"}, {"smiles": "CC(C)NC(=O)NP(=O)(Oc1ccccc1)Oc1ccccc1", "activation": "inactive: 0.36%"}, {"smiles": "O=C(OC1CN2CCC1CC2)c1cccc2[nH]cnc12", "note": "(stereo unspecified)", "activation": "inactive: -1.59%"}, {"smiles": "CCN(CC)C(=S)SC(NC=O)C(Cl)(Cl)Cl", "note": "(stereo unspecified)", "activation": "inactive: 0.7%"}, {"smiles": "Cc1c2c(nc3ccccc13)SC(C(Cl)Cl)C2", "note": "(stereo unspecified)", "activation": "inactive: -2.13%"}, {"smiles": "Cc1cc(=O)[nH]c(N[N+](=O)[O-])n1", "activation": "inactive: -0.9%"}]}]}
